Molecular target: human GPR139 (Homo sapiens, UniProt Q6DWJ6)
Assay: Ca2+ mobilization assay, agonist mode, stable GPR139-CHOk1 cell line
Assay type: cell-based

By UniProt entry, the sequences of proteins in these tests, tags left out.
UniProt Q6DWJ6, whole entry: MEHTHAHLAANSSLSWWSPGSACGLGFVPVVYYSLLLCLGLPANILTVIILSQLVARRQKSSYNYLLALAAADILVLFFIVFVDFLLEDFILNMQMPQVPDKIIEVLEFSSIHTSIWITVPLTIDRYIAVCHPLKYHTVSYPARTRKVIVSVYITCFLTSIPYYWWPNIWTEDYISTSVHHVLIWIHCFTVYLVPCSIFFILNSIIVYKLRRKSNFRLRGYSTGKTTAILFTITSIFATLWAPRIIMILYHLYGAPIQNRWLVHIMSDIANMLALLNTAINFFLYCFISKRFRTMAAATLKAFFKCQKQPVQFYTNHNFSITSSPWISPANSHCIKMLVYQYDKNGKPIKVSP

## C[C@H](NC(=O)Cn1cncc(-c2ccccc2)c1=O)c1ccccc1
read-out: EC50, Ca2+ mobilization, GPR139-CHOk1
  EC50: 540 nM
Relative to Lundbeck Cmp 1a
  Emax, Ca2+ mobilization: 122%

From article PMC12775434, “Ultra-large virtual screening unveils potent agonists of the neuromodulatory orphan receptor GPR139” (Nature Communications, 2025)
